# Values of other authors in patent publication US20110182943A1, “METHODS OF IMMUNE OR HEMATOLOGICAL ENHANCEMENT, INHIBITING TUMOUR FORMATION OR GROWTH, AND TREATING OR PREVENTING CANCER, CANCER SYMPTOMS, OR THE SYMPTOMS OF CANCER TREATMENTS” (FONTERRA CO-OPERATIVE GROUP LIMITED, priority 2007, published 2011).
# Conditions: cited from earlier work
substance,measurement,setting,value
vitamin D,safety of daily intake,"daily intakes of 10,000 IU in humans (in the absence of sunshine)",safe
same,daily ingestion after which most cases of vitamin D toxicity have been reported,for several years,"greater than 50,000 IU daily"
